Results as given in ChEMBL document CHEMBL3259549, “Unraveling the structure-activity relationship of tomatidine, a steroid alkaloid with unique antibiotic properties against persistent forms of Staphylococcus aureus” (2014).

Tested on: Staphylococcus aureus
Details: ATCC 29213

## GENTAMICIN
  MIC: 0.5 µg/mL
